Results: patent US20020183290A1, “Adrenergic receptor antagonists selective for both alpha1A-and alpha1D-subtypes and uses therefor” (Recordati S.A., Chemical and Pharmaceutical Company, priority 2001, published 2002)

Amino acid sequences for entries named in this document (tags omitted).
UniProt P35368, whole entry: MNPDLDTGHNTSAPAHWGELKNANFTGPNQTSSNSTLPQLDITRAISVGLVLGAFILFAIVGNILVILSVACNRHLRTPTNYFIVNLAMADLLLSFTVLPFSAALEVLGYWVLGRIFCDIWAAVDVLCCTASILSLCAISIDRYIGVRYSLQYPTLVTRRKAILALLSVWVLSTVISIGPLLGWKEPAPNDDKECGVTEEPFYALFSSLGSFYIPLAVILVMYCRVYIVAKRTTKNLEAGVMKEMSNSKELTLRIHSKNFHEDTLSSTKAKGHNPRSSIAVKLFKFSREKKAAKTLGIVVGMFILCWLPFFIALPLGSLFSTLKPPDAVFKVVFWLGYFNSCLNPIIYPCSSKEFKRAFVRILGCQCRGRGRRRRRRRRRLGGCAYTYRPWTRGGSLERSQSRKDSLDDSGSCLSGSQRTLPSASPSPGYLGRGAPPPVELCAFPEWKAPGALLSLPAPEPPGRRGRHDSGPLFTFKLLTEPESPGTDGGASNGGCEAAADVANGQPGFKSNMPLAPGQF
UniProt P25100, whole entry: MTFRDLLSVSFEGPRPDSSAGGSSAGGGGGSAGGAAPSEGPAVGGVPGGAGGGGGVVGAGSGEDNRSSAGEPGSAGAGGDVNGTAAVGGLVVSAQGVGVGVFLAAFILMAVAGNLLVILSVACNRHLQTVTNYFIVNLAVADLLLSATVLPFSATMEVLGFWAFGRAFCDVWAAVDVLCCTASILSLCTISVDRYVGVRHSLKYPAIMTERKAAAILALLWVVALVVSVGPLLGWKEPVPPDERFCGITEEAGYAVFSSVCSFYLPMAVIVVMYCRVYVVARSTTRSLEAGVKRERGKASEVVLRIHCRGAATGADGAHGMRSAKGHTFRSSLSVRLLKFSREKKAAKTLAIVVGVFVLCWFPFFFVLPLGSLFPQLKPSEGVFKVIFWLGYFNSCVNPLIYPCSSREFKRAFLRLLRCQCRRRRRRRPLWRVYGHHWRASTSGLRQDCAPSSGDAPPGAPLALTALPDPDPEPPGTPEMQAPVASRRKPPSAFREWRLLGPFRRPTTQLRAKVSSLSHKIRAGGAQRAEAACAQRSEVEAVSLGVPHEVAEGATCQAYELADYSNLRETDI

Tests used:
[1] = biological target: T1, cloned α1a-adrenoceptor subtype (Homo sapiens, UniProt P35348); test: Radioligand binding assay ([3H]prazosin), cloned α1a-adrenoceptor subtype; conditions: read-out: Binding Affinity (Ki nM) α1a
T1 construct: expressed in transfected cells
T1 sequence (P35348 1-466): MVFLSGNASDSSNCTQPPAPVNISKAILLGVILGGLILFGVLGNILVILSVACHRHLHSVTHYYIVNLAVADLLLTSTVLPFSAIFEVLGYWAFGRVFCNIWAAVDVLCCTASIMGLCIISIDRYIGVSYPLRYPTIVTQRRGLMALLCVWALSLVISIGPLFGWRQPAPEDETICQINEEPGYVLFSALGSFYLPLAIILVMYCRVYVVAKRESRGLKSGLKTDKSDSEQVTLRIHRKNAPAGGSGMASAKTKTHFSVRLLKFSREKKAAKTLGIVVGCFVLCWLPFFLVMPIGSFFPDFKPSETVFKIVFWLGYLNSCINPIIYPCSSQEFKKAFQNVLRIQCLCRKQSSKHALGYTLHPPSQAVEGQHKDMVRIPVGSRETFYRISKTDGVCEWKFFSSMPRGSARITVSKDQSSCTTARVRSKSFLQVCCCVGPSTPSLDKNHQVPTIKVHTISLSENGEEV

[2] = biological target: T2, cloned α1b-adrenoceptor subtype (Homo sapiens, UniProt P35368); test: Radioligand binding assay ([3H]prazosin), cloned α1b-adrenoceptor subtype; conditions: read-out: Binding Affinity (Ki nM) α1b
T2 construct: expressed in transfected cells

[3] = biological target: T3, cloned α1d-adrenoceptor subtype (Homo sapiens, UniProt P25100); test: Radioligand binding assay ([3H]prazosin), cloned α1d-adrenoceptor subtype; conditions: read-out: Binding Affinity (Ki nM) α1d
T3 construct: expressed in transfected cells

Row | SMILES | Ki [1] [nM] | Ki [2] [nM] | Ki [3] [nM]
1 | COc1ccccc1N1CCN(CCCNC(=O)c2cccc3c(=O)c(C)c(-c4ccccc4)oc23)CC1 [Rec 15/2739] | 0.11 | 4.55 | 1.44
2 | O=C1CC2(CCCC2)CC(=O)N1CCN1CCN(c2cc(Cl)ccc2Cl)CC1 [Rec 26D/038] | 128 | – | –
